Test results as given in US20040235784A1, “Combination preparations of 3-n-formylhydroxylaminopropyl phosphonic acid derivatives or 3-n-acetylhydroxylaminopropyl phosphonic acid derivatives combined with specific pharmaceutical active agents” (priority 2000, published 2004).

Test system: Plasmodium falciparum strains Dd2, 3D7 and HB3
Test: Sensitivity of Plasmodium falciparum to fosmidomycin in combination with different compounds, semi-automatic test by [3H]-hypoxanthin incorporation into parasite DNA
Assay type: cell-based
Conditions: drug in combination with fosmidomycin, sum FIC <1 synergism, >1 antagonism, =1 addition
Procedure: The IC50-values of fosmidomycin and the respective combination partner were determined for the single compounds and in different ratios of mixture on microtitreplates. The results were defined as sum of fractional inhibitory concentration (sum fractional inhibitory concentration, FIC):
sum FIC=IC50 of fosmidomycin in mixture/IC50 of fosmidomycin alone+IC50 of the combination partners in mixture/IC50 of combination partner alone
Sum FIC-values <1 represent synergism, values >1 antargonism and values=1 addition.

CCC[C@@H]1C[C@@H](C(=O)N[C@@H]([C@H]2O[C@H](SC)[C@H](O)[C@@H](O)[C@H]2O)[C@H](C)Cl)N(C)C1 [clindamycin]
sum FIC (P. falciparum strain 3D7): 0.40 | sum FIC (P. falciparum strain Dd2): 0.42 | sum FIC (P. falciparum strain HB3): 0.37
